Measured values reported in US8975415B2, “Chromane compounds” (CoMentis, Inc., priority 2012, dated 2015).
Like-named read-outs stand apart in the source and are kept apart here.

Protein sequences, listed by entry. Tags and fused reporters are not part of them. Residues count along the entry.
UniProt P56817, 46-501: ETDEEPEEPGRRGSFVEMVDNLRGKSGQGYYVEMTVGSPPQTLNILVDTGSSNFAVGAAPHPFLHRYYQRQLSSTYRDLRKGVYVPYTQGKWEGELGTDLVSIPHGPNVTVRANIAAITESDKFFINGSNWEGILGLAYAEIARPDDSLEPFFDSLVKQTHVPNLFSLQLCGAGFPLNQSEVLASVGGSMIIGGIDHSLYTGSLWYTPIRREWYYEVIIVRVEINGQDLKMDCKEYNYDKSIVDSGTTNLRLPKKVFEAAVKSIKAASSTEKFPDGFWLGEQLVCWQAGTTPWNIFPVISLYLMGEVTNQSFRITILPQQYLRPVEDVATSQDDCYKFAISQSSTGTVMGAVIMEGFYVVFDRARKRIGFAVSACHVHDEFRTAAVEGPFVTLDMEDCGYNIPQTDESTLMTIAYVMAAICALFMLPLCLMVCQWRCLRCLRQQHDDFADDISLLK
UniProt P56817, 75-416: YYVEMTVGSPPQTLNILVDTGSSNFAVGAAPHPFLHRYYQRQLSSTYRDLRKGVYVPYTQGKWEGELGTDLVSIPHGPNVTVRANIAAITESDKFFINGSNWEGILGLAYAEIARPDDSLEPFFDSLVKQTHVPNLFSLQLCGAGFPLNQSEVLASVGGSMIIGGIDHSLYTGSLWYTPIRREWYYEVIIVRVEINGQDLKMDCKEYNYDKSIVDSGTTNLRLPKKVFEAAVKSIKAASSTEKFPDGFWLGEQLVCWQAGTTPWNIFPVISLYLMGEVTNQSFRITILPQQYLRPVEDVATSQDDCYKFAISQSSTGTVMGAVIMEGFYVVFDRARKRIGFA

Experiments:
BACE1 [1] = molecular target: T1, BACE1 (Homo sapiens (Human), UniProt P56817); assay: Measurement of Aβ production inhibition in cell (SK-N-BE(2) neuroblastoma cells, Aβ40 ELISA); conditions: Test Example 3 IC50, Aβ40 production, SK-N-BE(2) cells, 6 hours
BACE1 [2] = molecular target: T1, BACE1; assay: Measurement of BACE1 inhibition by fluorescence resonance energy transfer (FRET), MCA substrate; conditions: for IC50: read-out: Test Example 1 IC50; for Ki: read-out: Test Example 1 BACE1 MCA Ki
BACE1 [3] = molecular target: T1, BACE1; assay: Measurement of BACE1 inhibition by time resolved fluorescence resonance energy transfer (TR-FRET); assay type: biochemical; conditions: Eu-CEVNLDAEFK-QSY 7 substrate, read-out: Test Example 2 IC50
[4] = FRET, MCA-SEVNLDAEFK(DNP)-NH2 substrate, pH 4.4

## CC1(C)Oc2ccc(NC(=O)c3ccc(Cl)cn3)cc2[C@@]2(COC(N)=N2)C12COC2 [Example 218, N-[(4S)-2-amino-2′,2′-dimethyldispiro[1,3-oxazole-4,4′-chromene-3′,3″-oxetan]-6′-yl]-5-chloropyridine-2-carboxamide]
BACE1 [1]
  IC50: 0.78 nM

## CC1(C)Oc2ccc(NC(=O)c3cnc(C(F)F)cn3)cc2[C@@]2(COC(N)=N2)C12CC2 [Example 224, N-[(4′R)-2″-amino-2′,2′-dimethyldispiro[cyclopropane-1,3′-chromene-4′,4″-[1,3]oxazol]-6′-yl]-5-(difluoromethyl)pyrazine-2-carboxamide]
BACE1 [1]
  IC50: 0.63 nM

## CC1(C)Oc2ccc(NC(=O)c3ccc(Br)cn3)cc2[C@@]2(COC(N)=N2)C12COC2 [Example 219]
BACE1 [2]; [4]
  IC50: 44.4 nM
BACE1 [1]
  IC50: 2.2 nM
BACE1 [3]
  IC50: 41.8 nM

## CC#Cc1cncc(-c2ccc3c(c2)C2(COC(N)=N2)C2(COC2)C(C)(C)O3)c1 (stereo not drawn) [RP 110]
BACE1 [2]; [4]
  IC50: 137 nM
BACE1 [1]
  IC50: 9.2 nM

## NC1=NC2(CO1)c1cc(-c3cncc(C4CC4)c3)ccc1OCC21CC1 (stereo not drawn) [RP 57]
BACE1 [2]
  IC50: 3690 nM

## CC#Cc1cncc(-c2ccc3c(c2)C2(COC(N)=N2)C2(COC2)C(Cc2ccccc2)O3)c1 (stereo not drawn) [RP 201]
BACE1 [2]; FRET, MCA substrate
  Ki: 71.1 nM
BACE1 [2]; [4]
  IC50: 113 nM
BACE1 [1]
  IC50: 8.7 nM

## CC1(C)Oc2ccc(-c3cc(O)cc(F)c3)cc2C2(COC(N)=N2)C12COC2 (stereo not drawn) [RP 169]
BACE1 [2]; [4]
  IC50: 1410 nM

## Cc1cc(Cl)cnc1C(=O)Nc1ccc2c(c1)C1(COC(N)=N1)C1(CC1)CO2 (stereo not drawn) [RP 194]
BACE1 [2]
  Ki: 313 nM
  IC50: 349 nM

## NC1=NC2(CO1)c1cc(NC(=O)c3ncc(Cl)cc3F)ccc1OCC21CC1 (stereo not drawn) [RP 29]
BACE1 [2]; FRET, MCA substrate
  Ki: 240 nM

## COc1cnc(C(=O)Nc2ccc3c(c2)[C@@]2(COC(N)=N2)C2(CC2)C(C)(C)O3)cn1 [Example 223, N-[(4′R)-2″-amino-2′,2′-dimethyldispiro[cyclopropane-1,3′-chromene-4′,4″-[1,3]oxazol]-6′-yl]-5-methoxypyrazine-2-carboxamide]
BACE1 [2]; [4]
  IC50: 99.1 nM
BACE1 [1]
  IC50: 3.1 nM

## CC#Cc1cncc(-c2ccc3c(c2)C2(COC(N)=N2)C2(COC2)C(Cc2ccccc2)O3)c1 (stereo not drawn) [RP 203]
BACE1 [2]; FRET, MCA substrate
  Ki: 67.6 nM
BACE1 [2]; [4]
  IC50: 109 nM

## CC1(C)Oc2ccc(NC(=O)c3ccc(Cl)cn3)cc2[C@]2(COC(N)=N2)C12COC2 [Example 228a, N-[(4R)-2-amino-2′,2′-dimethyldispiro[1,3-oxazole-4,4′-chromene-3′,3″-oxetan]-6′-yl]-5-chloropyridine-2-carboxamide]
BACE1 [2]; FRET, MCA substrate
  Ki: 30200 nM
BACE1 [2]; [4]
  IC50: 30300 nM

## CC1(C)Oc2ccc(NC(=O)c3ccc(Cl)cn3)cc2C2(COC(N)=N2)C12COC2 (stereo not drawn) [Example 27, N-(2-amino-2′,2′-dimethyldispiro[1,3-oxazole-4,4′-chromene-3′,3″-oxetan]-6′-yl)-5-chloropyridine-2-carboxamide]
BACE1 [2]
  Ki: 38.2 nM
  IC50: 82.2 nM
BACE1 [1]
  IC50: 9.4 nM

## C[C@@H]1Oc2ccc(Br)cc2[C@@]2(COC(N)=N2)C12COC2 (racemic) [RP 7b]
BACE1 [2]; [4]
  IC50: 39700 nM

## C[C@@H]1Oc2ccc(-c3cccnc3F)cc2[C@@]2(COC(N)=N2)C12COC2 (racemic) [RP 79]
BACE1 [2]; [4]
  IC50: 1690 nM
BACE1 [1]
  IC50: 450 nM
